From PMC8881512 (Nature Communications, 2022) come the findings set out here.

The chains behind the UniProt entries cited, without tags or fusion partners.
UniProt O95835, whole entry: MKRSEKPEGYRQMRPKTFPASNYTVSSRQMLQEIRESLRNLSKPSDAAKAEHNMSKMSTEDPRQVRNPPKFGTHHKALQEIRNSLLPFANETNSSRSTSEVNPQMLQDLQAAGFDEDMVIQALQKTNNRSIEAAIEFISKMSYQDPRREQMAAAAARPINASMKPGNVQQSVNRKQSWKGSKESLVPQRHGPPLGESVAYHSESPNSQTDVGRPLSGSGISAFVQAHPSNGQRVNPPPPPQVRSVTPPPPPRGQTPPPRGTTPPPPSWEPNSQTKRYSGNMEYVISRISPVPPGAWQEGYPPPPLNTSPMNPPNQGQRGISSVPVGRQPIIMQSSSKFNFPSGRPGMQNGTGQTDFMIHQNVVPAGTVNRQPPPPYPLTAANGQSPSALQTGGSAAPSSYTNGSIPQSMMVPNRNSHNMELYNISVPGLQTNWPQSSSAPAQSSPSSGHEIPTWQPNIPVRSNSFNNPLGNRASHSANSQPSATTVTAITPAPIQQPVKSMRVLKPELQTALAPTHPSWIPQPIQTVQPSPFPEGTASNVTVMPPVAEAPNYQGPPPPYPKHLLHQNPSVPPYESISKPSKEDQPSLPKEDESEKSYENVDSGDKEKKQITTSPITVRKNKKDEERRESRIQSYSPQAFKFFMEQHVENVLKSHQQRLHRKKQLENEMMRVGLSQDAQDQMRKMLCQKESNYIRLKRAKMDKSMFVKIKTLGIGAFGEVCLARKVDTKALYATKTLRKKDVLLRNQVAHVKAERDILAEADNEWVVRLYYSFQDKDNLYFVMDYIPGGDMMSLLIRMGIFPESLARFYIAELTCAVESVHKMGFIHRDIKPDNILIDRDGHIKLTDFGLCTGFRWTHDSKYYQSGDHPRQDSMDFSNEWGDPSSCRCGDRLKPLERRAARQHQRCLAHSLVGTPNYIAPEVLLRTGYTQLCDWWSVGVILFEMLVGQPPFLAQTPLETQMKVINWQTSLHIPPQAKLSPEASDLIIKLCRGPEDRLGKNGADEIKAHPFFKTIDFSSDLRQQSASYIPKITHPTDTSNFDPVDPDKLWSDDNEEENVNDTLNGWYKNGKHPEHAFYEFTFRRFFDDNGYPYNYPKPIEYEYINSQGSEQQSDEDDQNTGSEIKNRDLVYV

This experiment has as its target LATS1 (Homo sapiens, UniProt O95835). In words: LATS1 primary screen HTRF kinEASE assay (high-throughput compound screening). Conditions: read-out: LATS1 IC50 (LATS1 HTRF assay of the HTS); ATP at Km (31.4 μM); top concentration 30 μM. (In TR-FRET formats the signal depends on donor and acceptor labels being close together.)

In general, IC50 refers to the concentration needed to halve the response being measured.

For `CCN(Cc1ccc2c(c1)OCCO2)c1nc(-c2ccncc2)nc2ccccc12`, the IC50 is 1 µM.
